The values below come from paper PMC4009755, “High-Throughput Screen of Natural Product Libraries for Hsp90 Inhibitors” (Biology, 2014).

The first assay relates to Hsp90 chaperone machinery present in rabbit reticulocyte lysate. Description: Hsp90-dependent refolding of thermally denatured luciferase in rabbit reticulocyte lysate (high-throughput screen and titration). It counts as biochemical. Conditions: read-out: IC50 (µM), inhibition of luciferase refolding; estimate; titration from 25 µg/mL in three-fold dilutions, repeated twice; rabbit reticulocyte lysate. As to the method: Rabbit reticulocyte lysate, prepared by lysing one volume of packed reticulocytes in two volumes of deionized water, followed by centrifugation for twenty minutes at 15,000 × g, was purchased from Green Hectares (Oregon, WI, USA).
Recombinant luciferase from Promega was diluted to 0.5 mg/mL in buffer consisting of 25 mM Tricine–HCl (pH 7.8), 8 mM MgSO4, 0.1 mM EDTA, and 10 mg/mL acetylated BSA. Next, the solution was adjusted to include 10% glycerol and 1% Triton X-100. Finally, the luciferase solution was heated to ~41°. Once the activity of the luciferase reached ~1% of its initial value, the mixture was placed on ice, or flash frozen in liquid nitrogen and placed at −80° for storage.
To prepare the denatured luciferase for use in re-folding assays, 125 µL of the 0.5 mg/mL mixture was added into a 10 mL mixture containing 80 mM Tris HCl, pH 7.7, 8 mM Mg(OAc)2, 300 mM KCl, 12 mM ATP, and 20 mM creatine phosphate, and 0.8 mg/mL creatine phosphokinase.
The assay buffer, which contains the luciferase substrate luciferin, consisted of 75 mM Tricine-HCl, pH 7.8, 24 mM MgSO4, 300 µM EDTA, 2 mM DTT, 313 µM D-luciferin, 640 µM coenzyme A, 660 µM ATP, 150 mM KCl, 10% (v/v) Triton X-100, 20% (v/v) glycerol, and 3.5% DMSO.
The libraries were screened for compounds that inhibited the refolding of thermally denatured luciferase using a high-throughput assay carried out with a slight modification of the method previously described. Briefly, compounds were reconstituted in 100% DMSO. Stocks of compounds purchased from Microsource, TimTec, Biofocus and BioMol were reconstituted to a concentration of 1 mg/mL. The stocks were diluted 40-fold into nano-pure water with the compounds being used at a final concentration of 12.5 µg/mL for the assay. Analyticon compounds (0.2 µmol) were reconstituted to a concentration of 4 mM, and were used at a final concentration of 40 µM in the assay. Assays were performed in 96-well microplates. To each well was added 30 µL of the water/DMSO compound solution, 15 µL of the reticulocyte lysate preparation, and 15 µL of the luciferase reagent. The plates were agitated and then allowed to incubate at 25 °C for one to three hours. After the incubation, 60 µL of assay buffer containing luciferin was added to each well. The plates were then read in a Molecular Devices LMaxII^384 microplate reader, and luminescence was measured in relative light units, with an integration time of 10 s. Compounds that inhibited luciferase refolding by approximately fifty percent or greater were then titrated into a refolding reaction containing native luciferase, to eliminate false positive hits that were direct inhibitors of luciferase as previously described. Compounds were classified as a potential Hsp90 inhibitor if they inhibited luciferase refolding by 60% or greater and there was no inhibition of the activity of native luciferase at the compound’s IC50 (concentration of the compound that inhibits luciferase refolding by 50%).
To obtain an estimate of a compound’s IC50, the compounds were titrated into the assay mixture described above starting at a concentration of 25 µg/mL and a series of three-fold dilutions. The titrations were repeated twice. For a more accurate determination of the IC50s for the compounds studied in Section 3.2.1 of this manuscript, a two-fold […] series of the compounds were used in triplicate, with the experiment being repeated three times.
For `CCCC[C@@H](C)/C=C(C)/C=C(\C)C(=O)NC1=C[C@@](O)(/C=C/C=C/C=C/C(=O)NC2=C(O)CCC2=O)[C@@H]2O[C@@H]2C1=O`, the IC50 is 30 to 50 µM.

For `Cc1cccc2c3c(ccc12)C1=C(C(=O)C3=O)[C@@H](C)CO1`, the IC50 is 80 µM. The same measure, in the same setting: the figure for `O=C1c2ccccc2-n2c1nc1ccccc1c2=O` is 15 µM; for `CC1OC(OC2CCC(OC3C(O)CC(c4ccc5c(c4O)C(=O)C4=C(C5=O)C5(O)C(=O)CC(C)(OC6CCC(OC7C=CC(=O)C(C)O7)C(C)O6)CC5(O)C=C4)OC3C)OC2C)C=CC1=O` (stereo not shown) it is 100 µM; for `CC1=C(CC/C(C)=C/CC/C(C)=C/CCC2=CC(=O)OC2O)C(C)(C)CCC1` (stereo not shown) it is 10 to 20 µM. With `CC1=C(C2=C(C)C(=O)c3c(c(C=O)c(O)c(O)c3C(C)C)C2=O)C(=O)C2=C(C1=O)C(C(C)C)C(O)C(O)C2C=O` (stereo not shown), the IC50 is 6 µM. For the compound `CCC1CCCCCCCCc2cc1c(/C=C1/N=C(c3ccc[nH]3)C=C1OC)[nH]2` (stereo not shown), the IC50 was 10 µM. On the same count and under the same terms, the same measure for `COC1=C(OC)C2c3cc(OC)c(OC)cc3C(Cc3c4c5c(cc(OC)c(OC)c5c5cc(OC)c(OC)cc35)CCN4C)=C3C2C(=C1)CCN3C` (stereo not shown): 0.1 to 0.4 µM; for Phloretin: 35 to 90 µM.

As for `CC(C)=CCCC1(C)C=Cc2c(O)c3c(c(CC=C(C)C)c2O1)OC12C(CC4CC1C(C)(C)OC2(C/C=C(/C)C(=O)O)C4C)C3=O` (stereo not shown), the IC50 is 10 µM. Same read-out and setting: the same measure for `CC(C)=CC[C@@H](O)C1=CC(=O)c2c(O)ccc(O)c2C1=O`: 75 µM. Same read-out and setting: the same measure for `COC1=C(N)C(=O)c2nc(-c3nc(C(=O)O)c(C)c(-c4ccc(OC)c(OC)c4O)c3N)ccc2C1=O`: 15 µM. Take `COc1cc2c(C(=O)c3ccccc3)c3c4c(cc(OC)c(OC)c4c2cc1OC)CCN3C`: the IC50 was 7 to 20 µM. With `COc1cc2c(C=O)c3c4c(cc(OC)c(OC)c4c2cc1OC)CCN3C`, the IC50 was 1 to 3 µM. The same measure, in the same setting: the same measure for `CO[C@H]1c2cc(C(C)C)c(O)c(O)c2[C@@]23CCCC(C)(C)C2[C@@H]1OC3=O` (stereo partly shown): 30 µM; for `COC1C=COC2(C)Oc3c(C)c(O)c4c(O)c(c(C=O)c(O)c4c3C2=O)NC(=O)C(C)=CC=CC(C)C(O)C(C)C(O)C(C)C(OC(C)=O)C1C` (stereo not shown): 15 to 35 µM. The same measure, in the same setting: the figure for `CC1=C(O)C(=O)C=C2C1=CC=C1[C@@]2(C)CC[C@@]2(C)[C@@H]3C[C@](C)(C(=O)O)CC[C@]3(C)CC[C@]12C` is 2 µM; for `C[n+]1cc2c3c(ccc2c2ccc4cc5c(cc4c21)OCO5)OCO3` it is 70 µM. As for `CC(=O)OC1C=CC=C2CC34SSC(CO)(C(=O)N3C21)N(C)C4=O` (stereo not shown), the IC50 was 15 µM. The same measure, in the same setting: the same measure for `COc1cc2cc3c4c(cc(OC)c(OC)c4c2cc1OC)CCN3C`: 0.9 µM; for `Cc1cc2c(C(C)C)c(O)c(O)c(C=O)c2c(O)c1-c1c(C)cc2c(C(C)C)c(O)c(O)c(C=O)c2c1O`: 50 µM.

Staying with this assay, now noted: read-out: IC50 luciferase refolding; two-hour incubation; vs DMSO control; triplicate, repeated three times.
Turning to `COc1cc(/C=C/C(=O)N2CCC=CC2=O)cc(OC)c1OC` [Piplartine], the IC50 came out at 80 µM.
